Sequences of proteins named here, by UniProt entry; tags and fusion partners are left off. Residues count along the entry.
UniProt Q14832, 23-879: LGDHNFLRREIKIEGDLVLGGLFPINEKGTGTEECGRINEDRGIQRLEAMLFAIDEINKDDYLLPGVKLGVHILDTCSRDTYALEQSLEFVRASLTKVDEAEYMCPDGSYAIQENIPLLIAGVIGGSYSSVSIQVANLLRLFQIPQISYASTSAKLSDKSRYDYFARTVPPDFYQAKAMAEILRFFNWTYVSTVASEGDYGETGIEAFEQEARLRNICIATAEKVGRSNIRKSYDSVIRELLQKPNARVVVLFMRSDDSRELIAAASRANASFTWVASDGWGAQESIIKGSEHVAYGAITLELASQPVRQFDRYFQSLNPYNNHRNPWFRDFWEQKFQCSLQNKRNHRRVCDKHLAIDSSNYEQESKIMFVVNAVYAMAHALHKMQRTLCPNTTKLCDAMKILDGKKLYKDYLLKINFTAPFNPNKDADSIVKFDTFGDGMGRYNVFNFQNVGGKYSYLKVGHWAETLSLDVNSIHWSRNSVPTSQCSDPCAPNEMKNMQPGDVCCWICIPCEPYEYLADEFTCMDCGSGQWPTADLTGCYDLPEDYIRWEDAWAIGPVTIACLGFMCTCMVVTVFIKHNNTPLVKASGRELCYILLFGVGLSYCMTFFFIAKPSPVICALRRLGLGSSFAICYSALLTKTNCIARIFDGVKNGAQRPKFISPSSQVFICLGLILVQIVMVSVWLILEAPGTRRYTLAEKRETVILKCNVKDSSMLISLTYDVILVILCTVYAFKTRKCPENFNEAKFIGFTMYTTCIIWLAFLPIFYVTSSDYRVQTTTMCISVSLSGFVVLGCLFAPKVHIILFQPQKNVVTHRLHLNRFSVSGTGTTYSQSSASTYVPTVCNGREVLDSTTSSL
UniProt P31424, 21-1203: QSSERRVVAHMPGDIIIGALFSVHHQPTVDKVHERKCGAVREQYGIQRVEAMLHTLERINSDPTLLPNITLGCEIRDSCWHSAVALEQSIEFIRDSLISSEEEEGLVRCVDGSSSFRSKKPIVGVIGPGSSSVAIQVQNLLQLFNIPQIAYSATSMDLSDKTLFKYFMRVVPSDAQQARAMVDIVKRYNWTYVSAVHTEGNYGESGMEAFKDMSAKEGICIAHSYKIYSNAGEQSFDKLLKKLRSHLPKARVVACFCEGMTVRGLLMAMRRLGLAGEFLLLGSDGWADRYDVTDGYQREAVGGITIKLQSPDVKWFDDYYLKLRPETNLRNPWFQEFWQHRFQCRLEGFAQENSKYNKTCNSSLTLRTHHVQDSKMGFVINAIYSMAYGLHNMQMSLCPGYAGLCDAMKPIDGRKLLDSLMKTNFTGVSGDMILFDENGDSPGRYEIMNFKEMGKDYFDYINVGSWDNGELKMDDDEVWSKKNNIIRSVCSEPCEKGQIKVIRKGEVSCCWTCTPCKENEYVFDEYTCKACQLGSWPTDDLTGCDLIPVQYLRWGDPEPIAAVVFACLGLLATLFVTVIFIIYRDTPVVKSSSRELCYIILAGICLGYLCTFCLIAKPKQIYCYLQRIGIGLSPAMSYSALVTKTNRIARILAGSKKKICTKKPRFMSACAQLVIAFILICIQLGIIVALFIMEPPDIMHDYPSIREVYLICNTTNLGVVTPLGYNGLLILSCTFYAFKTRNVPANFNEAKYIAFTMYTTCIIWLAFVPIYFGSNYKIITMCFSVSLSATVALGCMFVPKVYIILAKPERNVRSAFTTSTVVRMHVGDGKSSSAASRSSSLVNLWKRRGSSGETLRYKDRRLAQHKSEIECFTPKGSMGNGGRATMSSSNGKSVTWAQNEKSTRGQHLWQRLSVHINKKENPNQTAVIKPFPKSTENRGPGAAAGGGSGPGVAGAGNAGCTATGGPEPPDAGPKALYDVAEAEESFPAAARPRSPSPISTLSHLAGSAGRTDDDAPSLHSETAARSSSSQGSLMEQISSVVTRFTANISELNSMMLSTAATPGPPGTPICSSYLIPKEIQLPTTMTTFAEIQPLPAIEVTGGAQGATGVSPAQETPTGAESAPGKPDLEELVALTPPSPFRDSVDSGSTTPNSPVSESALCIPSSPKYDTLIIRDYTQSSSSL

In article PMC4399811 (Bioorganic & medicinal chemistry letters, 2015):

Columns and labels:
[1] = target: mGlu3 (Homo sapiens, UniProt Q14832); conditions: mGlu3 IC50 vs mGlu5 EC50
[2] = target: rat mGlu5 receptors (Rattus norvegicus, UniProt P31424); experiment: 'triple add' calcium mobilization assay, mGlu5 PAM/NAM/agonist modes; format: cell-based; conditions: dihydro analogue 4 vs corresponding analogue 3

## O=C1N(c2ccc(F)cc2)CCc2nc(COc3ccccc3)cn21 [4a]
[1]
  functional selectivity for mGlu5 (vs mGlu3): ~ 3 fold
[2]
  fold increase in mGlu5 potency vs series 3 counterpart: ~ 3.5 fold
